Read-outs that look alike come from different tables or passages of the source.
Key:
[1] = tested on: Nrf2-dependent luciferase (ARE-element of the gene AKR1C2) in KeratinoSens cell line; experiment: KeratinoSens assay, luciferase gene induction (OECD TG 442d); conditions: single chemicals, 48 h
Description: The level of skin sensitization can reliably and quantitatively be measured experimentally by the KeratinoSens® method, which measures the induction of Nrf2-dependent luciferase in a skin cell line.
Compounds were tested using the commercial KeratinoSens® assay for skin sensitization. The KeratinoSens® test compares the potential skin sensitization risk of chemicals. […] KeratinoSens® cells were grown for 24 h in 96-well plates. The medium was then replaced with medium containing the test chemical and the solvent dimethylsulfoxide (DMSO) at a final level of 1% (v/v). Each compound was tested at 12 binary dilutions in the range from 0.98 to 2000 μM. Cells were incubated for 48 h with the test agents, and then luciferase activity and cytotoxicity were determined. This full procedure was repeated three times for each chemical. For each chemical in each repetition and at each concentration, the gene induction compared to DMSO controls and the wells with statistically significant induction over the threshold of 1.5 (i.e. 50% enhanced gene activity) were determined. Furthermore, the maximal fold-induction (Imax) and the EC1.5 value (concentration in μM for induction above the threshold) were calculated.
All compositions were tested in the concentration range from 0.2-400 ppm (parts per million in weights per volume).

Amino acid sequences for entries named in this document (tags omitted). A change or cut given only in a name is not applied to a line headed by its entry.
UniProt Q9ULV4: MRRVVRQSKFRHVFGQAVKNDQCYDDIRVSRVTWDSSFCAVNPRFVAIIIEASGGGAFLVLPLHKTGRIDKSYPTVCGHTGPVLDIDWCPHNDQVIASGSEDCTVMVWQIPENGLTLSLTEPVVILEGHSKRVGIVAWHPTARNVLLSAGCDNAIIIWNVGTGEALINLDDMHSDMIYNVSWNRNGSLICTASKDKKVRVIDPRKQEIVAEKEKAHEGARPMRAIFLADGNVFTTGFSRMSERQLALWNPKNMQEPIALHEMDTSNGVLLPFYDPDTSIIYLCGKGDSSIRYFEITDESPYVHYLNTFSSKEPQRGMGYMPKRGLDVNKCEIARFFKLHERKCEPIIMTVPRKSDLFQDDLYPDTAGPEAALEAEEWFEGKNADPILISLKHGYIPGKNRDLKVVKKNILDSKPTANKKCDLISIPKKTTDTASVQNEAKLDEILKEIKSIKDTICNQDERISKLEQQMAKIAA

[2] = molecular target: test peptide Cor1C-420 (Ac-NKKCDLF) (Homo sapiens, UniProt Q9ULV4, I423F); experiment: Modified direct peptide reactivity assay with LC-MS detection of peptide adducts
Description: Alternatively, the sensitization potential can be quantified by measuring the reactivity of test chemicals with peptides.
It is based on the fact that allergenic chemicals must react with a peptide/protein in order to be immunogenic.
The samples were incubated for 24 h at 37° C. and analysed by LC-MS analysis on a VELOS PRO Mass spectrometer (Thermo […], San Jose, Calif., U.S.A.) operated in the ESI(+) mode.
Mass spectra were recorded from 200-2000 amu. A ZORBAX Eclipse XDB-C18 column, 2.1 mm ID, 150 mm, 5-Micron (Agilent Technologies) was used. The mobile phase consisted of H2O (A) and methanol (B) each containing 0.1% formic acid (v/v). The solvent flow was 250 μl/min and the following gradient (ratio A:B) was used: 0 min, 95:5; 2 min, 40:60; 10 min, 2:98; 12 min, 2:98. The integration was performed with Xcalibur Quan Browser™.
In order to detect formation of modified peptides, the specific ion trace for a new adduct with the mass of the test chemical added to the test peptide is extracted, and the peak of the peptide-adduct is integrated. Peptide adduct formation is a particular sensitive endpoint to determine reactive, and thus allergenic nature of compounds.

## CC(C)=CCCC(C)=CC=O [Citral, 3,7-dimethyl-2,6-octadienal, reference compound]
[1]; 0.98 to 2000 μM
  Imax (fold maximal gene induction): 22.3 fold
[1]; n.i. = no induction above threshold of 1.5 (negative rating), listed as I
  Concentration for 1.5-fold gene induction (EC 1.5 in μM): 7.7 µM
[2]
  Peptide reactivity: adduct observation: Direct Michael
[2]; 1 mM test chemical, 0.1 mM peptide, 24 h at 37° C.
  Peptide reactivity: adduct observation: does form a direct peptide adduct

Reference: US20190062671A1, “PERFUME COMPOSITIONS” (Givaudan SA, priority 2016, published 2019)
